{
  "source": "paper PMC3684770",
  "about": "“S[+] Apomorphine is a CNS penetrating activator of the Nrf2-ARE pathway with activity in mouse and patient fibroblast models of amyotrophic lateral sclerosis^” (Free Radical Biology & Medicine, 2013)",
  "key": {"[1]": {"system": "C6 astrocyte cell line"}, "[2]": {"system": "NSC34 cells"}, "[3]": {"system": "1321N1 astrocyte cell line"}, "[4]": {"system": "Nrf2-ARE pathway", "experimental": "The Z′ score was calculated as follows Z′=1−(3SD^++3SD^−)/(Ave^+–Ave^−) where SD^+ = standard deviation of positive control wells; SD^− = standard deviation of negative control wells; Ave^+ = average fluorescence reading of positive control wells; Ave^− = average fluorescence reading of negative control wells.\nMedia was removed by hand and replaced (1 compound/well) with the Spectrum library diluted to 10 μM in 0.1% DMSO using a Q-bot liquid handling system (Genetix, New Milton, UK). […] The TK-GFP CHO ARE cell line was screened twice in a single point assay and the control TK-GFP CHO cell line was screened once to eliminate false positives.\nThe compounds were applied in triplicate to confluent cells in 96 well plates in serum free medium for 24 hours and the induction of GFP measured in a fluorescence plate reader.\nIn order to screen the Spectrum collection of 2000 molecules the reporter assay was optimised in […]. To assess the suitability of the assay for library screening, a Z’ score calculation was performed by treating alternate wells with vehicle (0.1% DMSO) and 10 µM Ebselen as a positive control (see calculation in Methods). […] The library was subsequently screened at a single point concentration of 10µM for every compound. […]"}},
  "data": [
    {"substance": "3-α-Hydroxygedinin", "values": [
      {"measurement": "C6 oxidative stress assay Toxic dose", "setting": "[1]", "result": "None"},
      {"measurement": "NSC34 oxidative stress assay Toxic dose", "setting": "[2]", "result": 10, "unit": "µM"},
      {"measurement": "1321N1 oxidative stress assay Toxic dose", "setting": "[3]", "result": "None"},
      {"measurement": "Toxic dose", "setting": "[4]", "result": 100, "unit": "µM"}
    ]}
  ]
}
